In PubChem BioAssay AID493240 (Broad Institute, 2011) one finds activity change, negative = viability loss data, which are given here for 2 compounds.

The structures appear in SMILES notation. The entries are a selection whose mix differs from that of the whole data set. Entries with a potency or affinity are not part of this list. Activity calls are given as the source filed them. No rule for the calls is given here.

A short description of the assay: cytotoxicity in parental SK-MEL-5 melanoma cells – cell-based, CellTiter-Glo, cherry-picked, set 3, orthogonal assay for MITF inhibitor project, dose response (AID 493240). The settings on record: SK-MEL-5 viability, ATP luminescence (CellTiter-Glo), 24 h; at 35 µM (top of the series). For orientation: In ATP-based viability assays light output follows the ATP content of the culture.
With `O=[N+]([O-])c1cc([N+](=O)[O-])c(-c2ccn[nH]2)s1`, the activity change, negative = viability loss was inactive: -10.3%.

`CCc1nc2c(n1)c1c(non1O)c1c2no[n+]1[O-]`: the activity change, negative = viability loss was inactive: -18.5%.
